This note sets out measurements from patent US4999354A, “Imidazoquinoxaline compounds and their preparation and use” (A/S Ferrosan, priority 1987, dated 1991).

The test concerns benzodiazepine receptors. Put plainly: in vivo displacement of 3H-flunitrazepam from brain benzodiazepine receptors in mice. Details: species or system mice (female, NMR). The following applies: test substance intraperitoneally 15 min before 3H-FNM i.v., forebrains taken 20 min after 3H-FNM. The source says:
The pharmaceutical properties of the compounds of the invention can be illustrated by determining their capability for displacing radioactive labelled flunitrazepam from benzodiazepine receptors.
The displacement activity of the compounds of the invention may found by determining the ED50 value. The ED50 value represents the dose (mg/kg) of a test substance which causes the specific binding of flunitrazepam to benzodiazepine receptors in a living brain to be reduced to 50% of the control value.
Such an in vivo test is carried out as follows:
Principle. Twenty minutes after a dose of ^3 H-flunitrazepam ^3 H-FNM) (200 μCi/kg, i.v.) the amount of specific ^3 H-FNM binding to brain benzodiazepine receptors has reached its maximal value.
Test procedure. […] The amounts of radioactivity on the filters are determined by conventional scintillation counting. […]
Results. The ED50 value is determined from dose response curves. If only one dose of test substance is administered the ED50 value is calculated as follows, provided that the inhibition of specific binding is within the range of 25-75%: [formula] where Co is specific binding in controls and Cx is specific binding in mice treated with test substance.
In general terms: In a radioligand displacement assay an active substance lowers the binding of a labelled ligand.

SMILES strings stand for the structures.

Turning to `CC(C)n1c(=O)c2c(-c3noc(C4CC4)n3)ncn2c2ccccc21` [Compound 3, 3-(5-cyclopropyl-1,2,4-oxadiazol-3-yl)-4,5-dihydro-5-isopropyl-4-oxo-imidazo[1,5-a]quinoxaline], the “ED50 (dose that inhibits 50% of specific 3H-flunitrazepam binding to brain benzodiazepine receptors)” value turned out to be 0.33 mg/kg.
